Patent US9493501B2, “Methyltransferase inhibitors for treating cancer” (MEMORIAL SLOAN-KETTERING CANCER CENTER, priority 2011, dated 2016)

Protein sequences, listed by entry. Tags and fused reporters are not part of them. Residues count along the entry.
UniProt Q86X55, 19-608 limits assumed: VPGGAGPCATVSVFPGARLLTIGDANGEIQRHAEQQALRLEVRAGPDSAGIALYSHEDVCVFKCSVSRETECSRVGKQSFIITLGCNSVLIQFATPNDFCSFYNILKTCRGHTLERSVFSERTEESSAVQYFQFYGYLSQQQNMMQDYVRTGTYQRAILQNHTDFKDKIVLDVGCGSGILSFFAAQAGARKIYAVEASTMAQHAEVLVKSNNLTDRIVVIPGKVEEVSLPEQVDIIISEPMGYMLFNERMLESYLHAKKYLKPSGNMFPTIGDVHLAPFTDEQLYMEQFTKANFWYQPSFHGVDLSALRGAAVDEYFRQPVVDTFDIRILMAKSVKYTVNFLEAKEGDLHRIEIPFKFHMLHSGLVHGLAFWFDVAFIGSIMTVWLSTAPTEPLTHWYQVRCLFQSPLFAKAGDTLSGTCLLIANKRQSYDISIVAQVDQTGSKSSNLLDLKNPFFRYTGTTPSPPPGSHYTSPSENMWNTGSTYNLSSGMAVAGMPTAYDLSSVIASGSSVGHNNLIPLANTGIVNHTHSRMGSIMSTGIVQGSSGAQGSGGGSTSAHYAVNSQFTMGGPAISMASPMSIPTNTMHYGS
UniProt O60678, 211-531 limits assumed: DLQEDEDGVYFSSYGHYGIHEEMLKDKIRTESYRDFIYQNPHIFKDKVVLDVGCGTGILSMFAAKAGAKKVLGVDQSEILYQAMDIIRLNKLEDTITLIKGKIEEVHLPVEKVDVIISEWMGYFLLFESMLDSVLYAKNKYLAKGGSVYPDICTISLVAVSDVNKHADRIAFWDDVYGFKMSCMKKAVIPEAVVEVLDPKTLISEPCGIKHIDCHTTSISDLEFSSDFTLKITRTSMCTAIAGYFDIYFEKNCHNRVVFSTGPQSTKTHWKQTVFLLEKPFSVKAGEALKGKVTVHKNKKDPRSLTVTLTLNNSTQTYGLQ
UniProt Q9H9B1, 982-1266 limits assumed: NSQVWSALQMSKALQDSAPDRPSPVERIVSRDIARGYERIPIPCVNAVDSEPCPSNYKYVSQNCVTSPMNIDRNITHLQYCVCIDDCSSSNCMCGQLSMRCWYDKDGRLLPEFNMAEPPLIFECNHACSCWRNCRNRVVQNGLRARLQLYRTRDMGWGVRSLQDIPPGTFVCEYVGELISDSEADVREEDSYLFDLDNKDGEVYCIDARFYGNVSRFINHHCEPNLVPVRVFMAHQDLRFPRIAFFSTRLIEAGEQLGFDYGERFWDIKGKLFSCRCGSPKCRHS
UniProt Q8WTS6, whole entry: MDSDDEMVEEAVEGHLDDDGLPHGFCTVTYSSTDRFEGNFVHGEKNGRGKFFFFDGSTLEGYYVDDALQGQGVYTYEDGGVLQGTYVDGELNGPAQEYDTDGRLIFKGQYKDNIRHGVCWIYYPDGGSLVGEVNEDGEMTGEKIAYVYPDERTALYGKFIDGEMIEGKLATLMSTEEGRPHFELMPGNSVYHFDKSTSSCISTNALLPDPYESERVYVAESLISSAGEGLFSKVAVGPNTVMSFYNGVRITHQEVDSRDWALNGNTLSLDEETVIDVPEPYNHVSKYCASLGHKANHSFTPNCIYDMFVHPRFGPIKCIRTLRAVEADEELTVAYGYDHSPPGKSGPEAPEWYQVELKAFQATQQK
UniProt Q96KQ7, 913-1193 limits assumed: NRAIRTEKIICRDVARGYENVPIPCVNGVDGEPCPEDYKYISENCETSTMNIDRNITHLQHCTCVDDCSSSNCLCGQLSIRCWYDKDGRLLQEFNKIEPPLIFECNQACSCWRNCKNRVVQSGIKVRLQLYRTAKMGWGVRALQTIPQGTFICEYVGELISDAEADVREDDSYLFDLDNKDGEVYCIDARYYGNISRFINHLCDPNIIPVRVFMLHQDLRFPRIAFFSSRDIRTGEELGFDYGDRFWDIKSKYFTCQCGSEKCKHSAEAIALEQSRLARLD
UniProt Q9NQR1, 232-393 limits assumed: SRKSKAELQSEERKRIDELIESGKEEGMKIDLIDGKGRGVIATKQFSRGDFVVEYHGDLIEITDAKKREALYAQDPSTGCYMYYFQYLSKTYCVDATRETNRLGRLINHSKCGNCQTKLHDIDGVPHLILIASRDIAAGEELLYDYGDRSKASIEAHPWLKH
UniProt Q9NRG4, whole entry: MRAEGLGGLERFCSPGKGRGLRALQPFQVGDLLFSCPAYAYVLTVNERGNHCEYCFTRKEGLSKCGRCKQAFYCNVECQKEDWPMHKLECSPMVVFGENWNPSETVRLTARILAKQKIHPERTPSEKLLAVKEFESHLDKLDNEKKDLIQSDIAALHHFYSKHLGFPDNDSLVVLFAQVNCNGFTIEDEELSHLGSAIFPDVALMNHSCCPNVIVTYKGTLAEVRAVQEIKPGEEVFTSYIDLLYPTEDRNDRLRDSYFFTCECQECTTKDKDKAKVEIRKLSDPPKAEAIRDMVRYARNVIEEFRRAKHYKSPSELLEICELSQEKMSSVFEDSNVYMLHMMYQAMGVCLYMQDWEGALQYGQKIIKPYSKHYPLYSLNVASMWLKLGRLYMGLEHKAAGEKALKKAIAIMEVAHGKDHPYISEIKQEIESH
UniProt Q9BYW2, 1347-1711 limits assumed: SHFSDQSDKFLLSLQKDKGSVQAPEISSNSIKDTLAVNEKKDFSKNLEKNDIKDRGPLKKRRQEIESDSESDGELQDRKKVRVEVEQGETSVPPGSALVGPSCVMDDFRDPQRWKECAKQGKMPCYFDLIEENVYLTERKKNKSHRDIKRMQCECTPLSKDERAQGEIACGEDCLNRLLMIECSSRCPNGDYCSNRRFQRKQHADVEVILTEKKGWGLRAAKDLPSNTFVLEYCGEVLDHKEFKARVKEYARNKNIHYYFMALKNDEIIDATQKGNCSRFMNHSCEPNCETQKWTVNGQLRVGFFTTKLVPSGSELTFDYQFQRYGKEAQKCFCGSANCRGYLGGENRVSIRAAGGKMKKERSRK
UniProt Q9H5I1, 112-410 limits assumed: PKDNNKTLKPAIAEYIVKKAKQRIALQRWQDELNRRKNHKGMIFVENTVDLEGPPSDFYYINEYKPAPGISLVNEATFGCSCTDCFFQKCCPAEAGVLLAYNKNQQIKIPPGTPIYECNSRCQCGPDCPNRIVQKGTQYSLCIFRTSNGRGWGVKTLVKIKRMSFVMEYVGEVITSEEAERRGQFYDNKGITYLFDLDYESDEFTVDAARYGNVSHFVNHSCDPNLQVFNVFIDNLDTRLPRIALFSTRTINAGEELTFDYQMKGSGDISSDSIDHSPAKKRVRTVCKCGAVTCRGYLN
UniProt Q99873, 10-352 isoform 3 limits assumed: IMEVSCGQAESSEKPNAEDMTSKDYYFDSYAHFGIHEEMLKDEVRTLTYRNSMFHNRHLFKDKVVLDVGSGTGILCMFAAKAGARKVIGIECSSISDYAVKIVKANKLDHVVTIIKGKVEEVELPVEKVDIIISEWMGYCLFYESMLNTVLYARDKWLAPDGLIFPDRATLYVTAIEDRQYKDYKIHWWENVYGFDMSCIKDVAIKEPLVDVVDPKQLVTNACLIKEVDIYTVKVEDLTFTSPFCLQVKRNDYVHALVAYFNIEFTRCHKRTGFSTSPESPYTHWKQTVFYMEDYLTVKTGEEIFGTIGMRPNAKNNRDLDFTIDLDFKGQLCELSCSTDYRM

How the values were obtained:
CARM1 (19-608) = CARM1 (19-608) (Homo sapiens, UniProt Q86X55); assay: Filter-paper methylation assay, CARM1; format: biochemical; details: for IC50: read-out: IC50 CARM1, 300 nM enzyme, H3 (1-40 aa) peptide, 7 h
PRMT3 (211-531) = PRMT3 (211-531) (Homo sapiens, UniProt O60678); assay: Filter-paper methylation assay, PRMT3; format: biochemical; details: read-out: IC50 PRMT3; 100 nM enzyme, RGG peptide, 3 h
GLP1 (951-1235) = GLP1 (951-1235) (Homo sapiens, UniProt Q9H9B1); details: read-out: IC50 GLP1; 10 nM enzyme, H3 (1-21 aa) peptide, 1 h
SET7/9 Full-length = SET7/9 Full-length (Homo sapiens, UniProt Q8WTS6); assay: Filter-paper methylation assay, SET7/9; format: biochemical; details: read-out: IC50 SET7/9; 150 nM enzyme, H3 (1-21 aa) peptide, 3 h
G9a (913-1913) = G9a (913-1913) (Homo sapiens, UniProt Q96KQ7); assay: Filter-paper methylation assay, G9a; format: biochemical; details: read-out: IC50 G9a; 20 nM enzyme, H3 (1-21 aa) peptide, 1 h
SET8 (191-352) = SET8 (191-352) (Homo sapiens, UniProt Q9NQR1); assay: Filter-paper methylation assay, SET8; format: biochemical; details: read-out: IC50 SET8; 1000 nM enzyme, H4 (10-30 aa) peptide, 8 h
SMYD2 Full-length = SMYD2 Full-length (Homo sapiens, UniProt Q9NRG4); assay: Filter-paper methylation assay, SMYD2; format: biochemical; details: read-out: IC50 SMYD2-FL; 50 nM enzyme, p53 (360-393 aa) peptide, 10 h
SETD2 (1347-1711) = SETD2 (1347-1711) (Homo sapiens, UniProt Q9BYW2); assay: Filter-paper methylation assay, SETD2; format: biochemical; details: read-out: IC50 SETD2; 250 nM enzyme, H3 (20-50 aa) peptide, 4 h
SUV39H2 (112-410) = SUV39H2 (112-410) (Homo sapiens, UniProt Q9H5I1); assay: Filter-paper methylation assay, SUV39H2; format: biochemical; details: read-out: IC50 SUV39H2; 5 nM enzyme, H3 (1-21 aa) peptide, 4 h
PRMT1 (10-352) = PRMT1 (10-352) (Homo sapiens, UniProt Q99873); assay: Filter-paper methylation assay, PRMT1; format: biochemical; details: read-out: IC50 PRMT1; 100 nM enzyme, RGG peptide, 1.5 h

Structure (SMILES)	selectivity for CARM1 inhibition (CARM1 (19-608); among the subset of PMTs screened)	IC50 (CARM1 (19-608))	IC50 (PRMT3 (211-531))	IC50 (GLP1 (951-1235))	IC50 (SET7/9 Full-length)	IC50 (G9a (913-1913))	IC50 (SET8 (191-352))	IC50 (SMYD2 Full-length)	IC50 (SETD2 (1347-1711))	IC50 (SUV39H2 (112-410))	IC50 (PRMT1 (10-352))
N=C(N)NC[C@@H](CC[C@H](N)C(=O)O)C[C@H]1O[C@@H](n2cnc3c(N)ncnc32)[C@H](O)[C@@H]1O	apparent selectivity	0.02 µM	0.7 µM	24.2 µM	34.8 µM	32 µM	> 100 µM	0.2 µM	24.4 µM	8.6 µM	1.9 µM
COCCCCN[C@@H](CC[C@H](N)C(=O)O)C[C@H]1O[C@@H](n2cnc3c(N)ncnc32)[C@H](O)[C@@H]1O	–	9.9 µM	70 µM	> 100 µM	12.6 µM	> 100 µM	> 100 µM	0.3 µM	2.9 µM	100 µM	> 50 µM
